Here are results for 1 compound from patent US4528377A, “Substituted 3,4-diamino-1,2,5-thiadiazoles having histamine H2 -receptor antagonist activity” (Bristol-Myers Company, priority 1983, dated 1985).

Protein sequences, listed by entry. Tags and fused reporters are not part of them.
UniProt P47747, whole entry: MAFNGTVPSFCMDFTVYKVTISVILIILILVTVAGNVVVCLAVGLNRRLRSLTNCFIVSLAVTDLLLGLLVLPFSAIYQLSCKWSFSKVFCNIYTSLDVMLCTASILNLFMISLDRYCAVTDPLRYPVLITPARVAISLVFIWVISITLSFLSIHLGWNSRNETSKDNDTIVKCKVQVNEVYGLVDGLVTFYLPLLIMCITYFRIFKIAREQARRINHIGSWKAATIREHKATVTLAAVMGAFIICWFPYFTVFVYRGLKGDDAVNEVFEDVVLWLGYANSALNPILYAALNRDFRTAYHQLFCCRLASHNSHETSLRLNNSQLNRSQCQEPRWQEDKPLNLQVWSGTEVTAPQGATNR

The term Kb denotes the affinity of an antagonist, worked out from how it opposes an agonist.

For this assay, the target named is T1, histamine H2-receptors (Cavia porcellus, UniProt P47747).
T1 construct: The spontaneously beating right atrium was dissected free from other tissues; from tissue; host or cells: isolated right atrium of male Hartley strain guinea pigs
Description: Histamine H2-receptor antagonism, isolated guinea pig right atria assay. The settings on record: Schild plot, 30-minute incubation, 95% confidence limits in parentheses, read-out: KB (dissociation constant). The assay is classed as cell-based, Hartley strain guinea pigs. From the text: Histamine produces concentration-related increases in the contractile rate of isolated, spontaneously beating guinea pig right atria. […] Subsequent investigations by Hughes and Coret, Proc. Soc. Exp. Biol. Med., 148, 127 (1975) and Verma and McNeill, J. Pharmacol. Exp. Ther., 200, 352 (1977) support the conclusion of Black and coworkers that the positive chronotropic effect of histamine in isolated guinea pig right atria is mediated via histamine H2 -receptors. Black et al., Agents and Actions, 3, 133 (1973) and Brimblecombe et al., Fed. Proc., 35, 1931 (1976) have utilized isolated guinea pig right atria as a means for comparing the activities of histamine H2 -receptor antagonists. The present comparative studies were carried out using a modification of the procedure reported by Reinhardt et al., Agents and Actions, 4, 217 (1974).
Male Hartley strain guinea pigs (350-450 gm) were sacrificed by a blow on the head. The heart was excised and placed in a Petri dish of oxygenated (95% O2, 5% CO2) modified Krebs solution (g/liter: NaCl 6.6, KCl 0.35, MgSO4.7H2 O 0.295, KH2 PO4 0.162, CaCl2 0.238, NaHCO3 2.1 and dextrose 2.09). […] Atrial contractions were recorded isometrically by means of a Grass FT 0.03 force displacement transducer and recordings of contractile force and rate were made with a Beckman RP Dynograph. […]

`CN/C(=N/CCSCc1nc[nH]c1C)NC#N` [cimetidine, reference compound]: the Kb was determined as 410 nM.
